Target: Dipeptidyl peptidase 4 (Homo sapiens, UniProt P27487)
Assay: Inhibition of DPP4 at 10 uM assessed as […] release after 1 hr relative to control

The chains behind the UniProt entries cited, without tags or fusion partners.
UniProt P27487, whole entry, looked up: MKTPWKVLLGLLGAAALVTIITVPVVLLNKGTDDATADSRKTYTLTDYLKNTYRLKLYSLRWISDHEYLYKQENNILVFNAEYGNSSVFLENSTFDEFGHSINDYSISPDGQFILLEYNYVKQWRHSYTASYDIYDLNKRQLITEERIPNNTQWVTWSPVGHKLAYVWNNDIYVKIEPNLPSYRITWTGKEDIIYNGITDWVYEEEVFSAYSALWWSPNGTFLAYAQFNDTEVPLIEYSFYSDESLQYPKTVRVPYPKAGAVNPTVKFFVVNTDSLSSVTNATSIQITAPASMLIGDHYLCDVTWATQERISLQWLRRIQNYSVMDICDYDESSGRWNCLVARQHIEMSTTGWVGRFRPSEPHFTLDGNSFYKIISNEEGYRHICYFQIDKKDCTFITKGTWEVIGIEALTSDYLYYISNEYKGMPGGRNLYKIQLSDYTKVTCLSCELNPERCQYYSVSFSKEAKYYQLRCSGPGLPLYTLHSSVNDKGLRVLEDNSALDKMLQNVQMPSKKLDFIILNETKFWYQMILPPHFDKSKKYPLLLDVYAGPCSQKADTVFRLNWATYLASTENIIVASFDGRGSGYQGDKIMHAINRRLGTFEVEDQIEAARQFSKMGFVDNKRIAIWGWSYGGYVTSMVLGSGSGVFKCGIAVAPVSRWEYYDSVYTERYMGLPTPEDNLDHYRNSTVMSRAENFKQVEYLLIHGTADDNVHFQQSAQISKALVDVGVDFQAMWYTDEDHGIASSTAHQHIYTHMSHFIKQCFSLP

inhibition: 14%
Structure (SMILES): CC[C@H](C)[C@H](N)C(=O)N1CCC[C@H]1C(=O)N[C@H](C(=O)O)[C@@H](C)CC

Reference: ChEMBL document CHEMBL1770097, “Non-competitive and selective dipeptidyl peptidase IV inhibitors with phenethylphenylphthalimide skeleton derived from thalidomide-related α-glucosidase inhibitors and liver X receptor antagonists” (Bioorg Med Chem Lett, 2011)
